The record followed here is PubChem BioAssay AID652067 (The Scripps Research Institute Molecular Screening Center, 2013).

Only a part is listed here, and it is no random draw. Calls of active or inactive are those of the source.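 How the source made its calls: active means activation above the mean of all tested compounds plus 3 SD (cut at about 5.5% in these data); inactive means the rest.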

For the experiment, the system named is DAF-12 nuclear receptor (Haemonchus contortus). The experiment can be described thus: hcDAF-12 driven luciferase reporter activation – cell-based, luminescence, HEK293, lit1-tk-luc reporter, primary screen (AID 652067).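 Further: 100% = response to 3 µM Δ7-dafachronic acid high control.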 The conditions noted are these: HEK293 hcDAF-12 lit1-tk-luc reporter, at 6.8 µM, active compounds read high, 0% DMSO, 100% Δ7-dafachronic acid. (In general: A reporter such as luciferase makes a cellular process visible.)
For `Cc1ccccc1OP(=O)(Nc1ccccn1)Oc1ccccc1C`, the activation was inactive: -0.95%.
The result for `CC(NC(=O)COC(=O)C(O)(c1ccccc1)c1ccccc1)c1ccccc1` (configuration not stated) reads inactive: -1.34%.
Then `CN(C)C(=O)Oc1noc2ccccc12`, with inactive: -1.54%; and `O=c1c2cc([N+](=O)[O-])ccc2[nH]c2c([N+](=O)[O-])cc([N+](=O)[O-])cc12`, with inactive: -1%; and `O=C(OC1CN2CCC1CC2)c1ccccc1` (configuration not stated), with inactive: -0.5%.
`CCC(=O)N1C2C3N(C(=O)CC)C1C1N(C(=O)CC)C(C(N1C(=O)CC)N3C(=O)CC)N2C(=O)CC`: the activation is inactive: -0.9%.
The result for `COC(=O)c1cc2c(s1)N=C(c1ccccc1)N(C)P2(=O)N1CCOCC1` (configuration not stated) reads inactive: -0.15%; that for `CC(=O)NC(SC(=S)N(CC(C)C)CC(C)C)C(Cl)(Cl)Cl` (configuration not stated), inactive: 0.88%.
The result for `Cc1ccc(OP(=O)(Nc2ccccn2)Oc2ccc(C)cc2)cc1` reads inactive: 1.82%.
Then `CC(C)(C)C(=O)NC(Sc1ccccc1)C(Cl)(Cl)Cl` (configuration not stated), with inactive: 0.29%; and `CCc1cc(O)c([N+](=O)[O-])c(C)c1[N+](=O)[O-]`, with inactive: 0.8%; and `O=P1(Nc2nc3ccc(Cl)cc3s2)COc2ccccc2O1` (configuration not stated), with inactive: -0.44%.
With `CCOc1ccc(C2=NCC(CBr)S2)cc1` (configuration not stated), the activation is inactive: 1.14%.
The result for `CC(=O)Nc1ccc([As](=O)(O)O)c(O)c1` reads inactive: -0.86%.
The result for `CC(=O)Nc1ccc(Oc2c([N+](=O)[O-])cc([N+](=O)[O-])cc2[N+](=O)[O-])cc1` reads inactive: 1.15%; that for `Cc1ccccc1CN(C)C(=O)COC(=O)C(O)(c1ccccc1)c1ccccc1`, inactive: -1.98%; that for `C[C@@H]1C=CCP(=O)(Oc2ccccc2)O1` (some centres not stated), inactive: -2.51%.
For the compound `C[C@H]1OP(=O)(Oc2ccccc2)C[C@@H]2O[C@@H]21` (some centres not stated), the activation is inactive: -0.1%.
For the compound `N#C/C(=C\c1ccc(N(CCBr)CCBr)cc1)C(N)=O`, the activation is inactive: 0.28%.
The result for `CC(=O)c1ccc(N2CC2c2ccncc2)cc1` (configuration not stated) reads inactive: -1.42%; that for `COC(=O)C1(C)COP(=O)(NCc2ccccc2)OC1` (configuration not stated), inactive: -1.2%; that for `O=[As](O)(c1cccc(O)c1)c1cccc(O)c1`, inactive: -1.49%.
For `Cc1cccc(OCC(=O)OC2CN3CCC2CC3)c1` (configuration not stated), the activation was inactive: -0.57%.
Then `O=C(OC1CN2CCC1CC2)c1ccc(Cl)cc1` (configuration not stated), with inactive: -0.7%.
The result for `COc1cc(C(=O)NCC2(N3CCOCC3)CCCCC2)cc(Cl)c1OC(C)C` reads inactive: 3.53%.
The result for `O=[As](O)(O)c1cccnc1` reads inactive: -0.04%; that for `CS(=O)(=O)c1ccc(Cl)c(NC(=O)COC(=O)C(O)(c2ccccc2)c2ccccc2)c1`, inactive: 1.39%.
